The target in experiment [1] is hOGG1 (human oxoguanine glycosylase 1), wildtype (human) (UniProt O15527). The experiment is described as follows: fluorescence polarisation; reducing conditions (5 mM DTT); 5 nM Ni-NTA AF488 labelled his6-hOGG1, unlabelled protein titrated (Myc 1.22 nM-2 uM, LSD1 1.38 nM-60 uM, hOGG1 0.24 nM-8 uM); 20 mM Tris-HCl pH 7.6, 200 mM NaCl; 25 C; single Hill fit. (In general: Polarisation of emitted light reports the rotation of a fluorescent probe.)

Experiment [2] shares this target. The experiment in a line: fluorescence polarisation; oxidising conditions (5 uM H2O2); 5 nM Ni-NTA AF488 labelled his6-hOGG1, unlabelled protein titrated (Myc 1.22 nM-2 uM, LSD1 1.38 nM-60 uM, hOGG1 0.24 nM-8 uM); 20 mM Tris-HCl pH 7.6, 200 mM NaCl; 25 C; single Hill fit.

Broadly, the Kd is the concentration at which binding is half-saturated. Read a high Kd as lower affinity.

For the substance “LSD1 (lysine specific demethylase 1) (from UniProt O60341 1-852) (enzyme; other documents disagree on this pair)”, the equilibrium dissociation constant (Kd) in experiment [1] was found to be 754 nM; in experiment [2], 867 nM.

These data come from article PMC9561264.
